This passage reports MEC results from ChEMBL document CHEMBL1146241, “Novel inhibitor for fibroblast growth factor receptor tyrosine kinase” (Bioorg Med Chem Lett, 2007).

The chains behind the UniProt entries cited, without tags or fusion partners.
UniProt P11362, whole entry, looked up: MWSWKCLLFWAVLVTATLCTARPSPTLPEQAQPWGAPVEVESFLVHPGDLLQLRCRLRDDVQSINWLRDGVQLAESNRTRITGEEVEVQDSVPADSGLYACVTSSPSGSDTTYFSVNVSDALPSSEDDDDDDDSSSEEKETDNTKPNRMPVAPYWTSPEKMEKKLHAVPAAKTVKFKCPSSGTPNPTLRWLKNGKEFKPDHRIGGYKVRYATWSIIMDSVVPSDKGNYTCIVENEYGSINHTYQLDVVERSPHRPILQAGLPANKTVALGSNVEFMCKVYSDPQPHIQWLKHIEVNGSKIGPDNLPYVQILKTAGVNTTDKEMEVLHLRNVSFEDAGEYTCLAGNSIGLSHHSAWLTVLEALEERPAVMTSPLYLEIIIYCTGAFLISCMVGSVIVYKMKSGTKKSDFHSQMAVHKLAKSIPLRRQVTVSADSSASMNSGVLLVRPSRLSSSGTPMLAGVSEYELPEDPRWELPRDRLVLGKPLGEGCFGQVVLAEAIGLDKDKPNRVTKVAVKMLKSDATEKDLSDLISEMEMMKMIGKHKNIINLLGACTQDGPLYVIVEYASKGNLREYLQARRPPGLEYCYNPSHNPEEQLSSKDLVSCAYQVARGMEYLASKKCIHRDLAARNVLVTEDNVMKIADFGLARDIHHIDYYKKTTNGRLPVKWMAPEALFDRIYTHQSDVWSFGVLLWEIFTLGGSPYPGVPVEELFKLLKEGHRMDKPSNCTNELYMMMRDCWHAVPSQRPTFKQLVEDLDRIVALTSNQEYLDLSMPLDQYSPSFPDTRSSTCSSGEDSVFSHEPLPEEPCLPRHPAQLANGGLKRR

This assay addresses Fibroblast growth factor receptor 1 (Homo sapiens, UniProt P11362). Particulars: HUVEC.

Compound `Cc1[nH]c(/C=C2\C(=O)Nc3cc(-c4ccccc4)ccc32)c(C)c1CCC(=O)O` registered an MEC of 10 µM.
